Here are results for 1 substance from patent US6642216B2, “Isoprenoid pathway inhibitors for stimulating bone growth” (ZymoGenetics Corporation, priority 1996, dated 2003).

The test system of the assay is neonatal mouse calvaria. Kind of assay: Neonatal mouse calvaria assay (in vitro bone formation). The settings on record: Experiment 1. It counts as cell-based. Set-up: Osteoblast Number, % increase over vehicle control / New Bone Area, % increase over vehicle control: concentration or dose not given beside the values.

For “BMP-2: bone morphogenic protein, control factor, "gold standard" agent for bone growth”, under “3 days”, the “New Bone Area” value was 8.4 mm^2 × 10^−3; the “New Bone Area, % increase over vehicle control” value amounted to 75%; the “Osteoblast Number” value was determined as 127 Obs/field; the “Osteoblast Number, % increase over vehicle control” value was determined as 31%. For the same substance, under “7 days”, the “New Bone Area” value worked out at 18.7 mm^2 × 10^−3; the “New Bone Area, % increase over vehicle control” value is 140%; the “Osteoblast Number” value is reported as 119 Obs/field; the “Osteoblast Number, % increase over vehicle control” value was 28%.
